Experimental data as given in publication PMC8206213, “An L-2-hydroxyglutarate biosensor based on specific transcriptional regulator LhgR” (Nature Communications, 2021).

How the values were obtained:
Type in all cases: binding, Pseudomonas putida W619
LHGFR0N3C [1] = test: Specificity of purified LHGFR0N3C, emission ratio with 240 μM compounds; settings: 240 μM compound
Experimental: (§1) Purified L-2-HG biosensors and different compounds were diluted by 50 mM Tris-HCl buffer (pH 7.4), mixed together in a black 96-well plate at a volume ratio of 3:1, and the fluorescence intensities were measured using an EnSight microplate reader (PerkinElmer, USA) with excitation at 430 nm, emission at 485 nm (mTFP) and 528 nm (Venus). […] The [L-2-HG], Kd, and p refer to the L-2-HG concentration, apparent dissociation constant, and Hill slope, respectively. Emission spectra were recorded at 430 nm excitation, in steps of 2 nm. Excitation spectra were recorded using emission at 550 nm, excitation from 380 to 535 nm in steps of 2 nm.

LHGFR0N7C [2] = test: Specificity of purified LHGFR0N7C, emission ratio with 240 μM compounds; settings: 240 μM compound
Experimental: as §1

LHGFR0N3C [3] = test: Influence of other compounds on the response of purified LHGFR0N3C to L-2-HG; settings: Suppl. Fig. 9a; L-2-HG alone or with the compound; three replicates
Experimental: as §1

LHGFR0N7C [4] = test: Influence of other compounds on the response of purified LHGFR0N7C to L-2-HG; settings: Suppl. Fig. 9b; L-2-HG alone or with the compound; three replicates
Experimental: as §1

## O=C(O)CC(C(=O)O)C(O)C(=O)O (stereo not drawn) [Isocitrate]
LHGFR0N3C [1]
  Emission ratio: 1.348 and 1.426 and 1.4104
  Induction of emission ratio changes: None
LHGFR0N7C [2]
  Emission ratio: 1.698 and 1.723 and 1.716
  Induction of emission ratio changes: None
LHGFR0N3C [3]
  Emission ratio: 1.979 and 2.009 and 2.114
LHGFR0N7C [4]
  Emission ratio: 2.567 and 2.522 and 2.6156

Where “and” joins values, the source holds several entries; their conditions need not be identical. Identical values can stand only once.
